# scFv variants of Ab-14 (light chain) against a SARS-CoV-2 spike peptide

Target: peptide PDVDLGDISGINAS, taken from heptad repeat 2 (HR2) of SARS-CoV-2 spike.

Ab-14 is the parent antibody, in scFv form: VH, then three GGGGS repeats, then VL. The heavy chain is unchanged in all variants.
VH: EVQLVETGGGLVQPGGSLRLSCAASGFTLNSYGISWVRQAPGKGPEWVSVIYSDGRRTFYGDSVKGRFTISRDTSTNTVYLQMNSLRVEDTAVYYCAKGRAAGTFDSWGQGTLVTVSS
VL: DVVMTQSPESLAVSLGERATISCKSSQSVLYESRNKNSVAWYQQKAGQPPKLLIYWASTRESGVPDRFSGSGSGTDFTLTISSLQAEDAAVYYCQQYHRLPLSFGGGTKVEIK

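The starting antibody came from a phage panning campaign against this peptide. These sequences belong to a second round, designed from the earlier measurements on random variants of the parent. Several design methods are mixed in this list. AlphaSeq pools MATa yeast showing the antibodies with MATalpha yeast showing the peptide. Pairs that bind mate more often; barcode pairs of the diploids are counted by sequencing. Read counts were normalised to the haploid input and turned into Kd by a linear fit to BCL2-family pairs of known affinity, for each replicate. Each pool was mated in six replicate cultures.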

Variants are written as CDR1, CDR2 and CDR3 of the light chain (limits as in the source). Parent: KSSQSVLYESRNKNSVA, WASTRES, QQYHRLPLS. Values are log10 of the apparent Kd in nM; lower means stronger binding. A mean of the replicates is given; it leaves out those without a signal. An entry "no signal" has no value in the source: the pair was not observed among the diploids in any replicate. This suggests poor binding but is not conclusive. The authors averaged sequences with at least three values out of six and counted those with two or fewer as poor binders.

CDR-L1,CDR-L2,CDR-L3,mean log10 Kd (nM),detected,signal with controls
MISQSFLIGMKAKNSVA,QTNTREA,QQYDRLPLI,0.23,6/6,2/18
KMSISYLEESRNKNSVA,EASTRES,QQYHRLPLS,0.13,6/6,0/18
KLSWSVLLMSRAKNSVA,NASTRES,QQYHRLPLS,-0.30,6/6,0/18
HISMSMNWLTRNKNSIA,EESTRED,QQYDRLPLS,0.67,6/6,1/18
KSSQSVLYESGNKNSVA,WASTREN,QQYHVLPLS,0.98,1/6,0/18
KLSQSVLYESRNKNSVA,NASTREV,QQYHRLPLS,-0.25,6/6,2/18
KLRMVTGYESRNKDSIA,DNSTRGR,QQYHRLPLS,1.20,6/6,3/18
HSSPSEAYESRNKNSVA,NASTRES,QQYHRLPLS,0.15,6/6,1/18
KLSQSVLYESRNKNSVA,EASTRED,QQYHRLPLS,-0.12,6/6,1/18
HISQSVGMTSFNKNSVA,ENSTREN,QQYDRLPLS,2.47,4/6,2/18
KLQGSELGESRNKNSVA,SADTRES,QQYHRLPLS,-0.59,6/6,0/18
KLYQSDLYESRNKNSVA,GASTRES,QQYHRLPLS,-0.24,6/6,0/18
HSSQSVLYESRNGNSVA,NASTRES,QQYHRLPLS,0.29,6/6,0/18
KLPMKELEMSQNTNNVA,DSAQKMK,QQYSRLPLM,-0.29,6/6,2/18
MMSQVTGMGSRQRNNVA,QTSQREP,QQYDRLPLI,0.77,6/6,2/18
KLMQSALLESRNFNNVA,QASQREL,QQYHRLPLS,-0.21,6/6,5/18
KSSGSVLIESRNKNSVA,WASTRES,QQYHRLPLS,no signal,0/6,0/18
SLVQEKSVGDKNMGNIA,AGNQLSV,QQYNRLPLS,0.19,6/6,0/18
KSSQSVLIESRNPNSVA,WASTRES,CQYHRLPLS,no signal,0/6,0/18
KLLQSVLLESRNSNSVA,NASTREL,QQYHRLPLS,0.24,6/6,2/18
HMSMMTLMGSRNRNSVA,QMTTREN,QQYDRLPLA,0.60,6/6,0/18
KLSQSVRMESFVKDNVA,ENSTREE,QDYHRLPLS,1.62,2/6,0/18
KISMYLNKEKKAGNNVA,EMVNREA,QQYDRLPLS,0.47,6/6,2/18
TISQMSTLFSQSINNVA,EVSTREE,QQYDRLPLA,0.84,6/6,0/18
HITYGMMVAGRHSKSIA,QAEERAK,QQYDRLPLS,0.63,6/6,0/18
KMSQSVLMEHRNKNSVA,DASQRES,QQYHRLPLS,-0.22,6/6,1/18
KLLQSQEYESRNKNSVA,HASTRED,QQYHCLPLS,1.17,4/6,0/18
QISQLMNLSMHGTNNVA,QMETRVK,QQYDRLPLS,1.24,6/6,2/18
KLYFNVGTLSHDKQSIA,DMERRED,QQYHRLPLS,0.49,6/6,0/18
KLSQSVLYQMGQKNSVA,QASTRMS,QQYHRLPLS,0.84,5/6,0/18
KDSESVLYESRNKNSIA,MASTRES,QQYHRLPLS,1.05,6/6,0/18
ALGDVTRMESNKKDSIA,DMSTRES,QQYHRLPLS,0.03,6/6,0/18
KLSQSVCYESRNKNSVA,NASTRES,QQYHRLPLS,0.64,6/6,0/18
KSDQSVLYESRNKNSVA,WASMRES,QQYHRLPLD,2.04,1/6,0/18
MISQLYNMGSFAINSVA,QASQRNE,QQYDRLPLI,2.06,2/6,0/18
KQSQSVLFEPRNKNSVA,DASTRES,QQYHRLPLS,-0.38,6/6,2/18
KIGDTLNQLMHKKNNVA,DLVMREN,QQYFRLPLS,0.26,6/6,0/18
KLQWYPLEIRDTGSAVA,EAATKYN,QQYMRLPLM,1.58,1/6,0/18
KSSGSVMGEDWNKNSVA,HASQRES,QQYHRLPLM,0.61,6/6,1/18
TIGQSLMQGIRNRSNVA,EVSQRLN,QQYDRLPLE,1.64,6/6,1/18
TLYGLSMSMSKNKNNVA,EMTTREK,QQYDRLPLA,0.42,6/6,0/18
KLSQSVLYESRVKNAVA,NASTRES,QQYHRLPLS,-0.19,6/6,0/18
KIQQSVYYESLNKNSVA,HASTRLQ,QQYHRLPLS,1.12,6/6,0/18
KLSQQQLYESRNKNSVA,NASTRES,QQYHRLPLS,-0.15,6/6,0/18
KMSQSVMMESRNKNSVA,DASTRES,QQYHRLPLS,-0.10,6/6,0/18
KMSQSVLQESCDKNSVA,QASTRES,QQYHRLPLS,0.75,6/6,3/18
TVSQVHEMLSHNKNSVA,DMNTRES,QQYDRLPLS,-0.08,6/6,0/18
KISQMIRVGSTHHNSIA,EEATRAK,QQYHRLPLA,1.31,6/6,1/18
ALTNEFESVSHHKNNIA,HTDQRCM,QQYATLPLS,1.14,6/6,0/18
ISSQTVLYESRNTNSVA,ERSTRES,QQYHRLPLS,0.80,1/6,0/18

Extract of 7 entries:

CDR-L1,CDR-L2,CDR-L3,mean log10 Kd (nM),detected,signal with controls
HISMSMNWLTRNKNSIA,EESTRED,QQYDRLPLS,0.67,6/6,1/18
KLQWYPLEIRDTGSAVA,EAATKYN,QQYMRLPLM,1.58,1/6,0/18
HSSQSVLYESRNGNSVA,NASTRES,QQYHRLPLS,0.29,6/6,0/18
KLPMKELEMSQNTNNVA,DSAQKMK,QQYSRLPLM,-0.29,6/6,2/18
KISQMIRVGSTHHNSIA,EEATRAK,QQYHRLPLA,1.31,6/6,1/18
KMSQSVLQESCDKNSVA,QASTRES,QQYHRLPLS,0.75,6/6,3/18
KLSWSVLLMSRAKNSVA,NASTRES,QQYHRLPLS,-0.30,6/6,0/18

Nonspecific signal, from three strains lacking the peptide, appeared in 4% of pairings of all light chain designs, centred on 2.64 (5% of these signals below 1.59); values are not corrected for it. For each scFv, signals with the empty controls are counted beside the result. A sequence measured in both rounds can read differently, since the two assays cover different ranges.

The measurements come from Li et al. 2023 (doi:10.1038/s41467-023-39022-2) through the FLAb antibody collection.